Earlier results, collected in patent US10881656B2, “HIF inhibitors and use thereof” (The General Hospital Corporation, priority 2008, dated 2021).

System: HIF
Details: published; cited from earlier work

N[C@@H](Cc1ccc([N+]([O-])(CCCl)CCCl)cc1)C(=O)O
Biological Activities: Tumor suppression
